Reference: article PMC9467883

What was measured:
[1] = biological target: Human Trio SR6-GEF1 (human) (UniProt O75962)

- catalytic efficiency kcat/KM of nucleotide exchange on Rac1 (Human Trio GEF1 (human)): 19000 M⁻¹ s⁻¹
- kobs of exchange of BODIPY-FL-GDP for GTP on Rac1, 100 nM GEF1 (Human Trio GEF1 (human)): 0.0024 s⁻¹
- catalytic efficiency kcat/KM of nucleotide exchange on Rac1 [1]: 3100 M⁻¹ s⁻¹
- kobs of exchange of BODIPY-FL-GDP for GTP on Rac1, 100 nM SR6-GEF1 [1]: 0.00012 s⁻¹
Substance: Human Rac1 (from UniProt P63000 1-192) (natural protein)
